From ChEMBL document CHEMBL1153635, “Identification of [4-[4-(methylsulfonyl)phenyl]-6-(trifluoromethyl)-2-pyrimidinyl] amines and ethers as potent and selective cyclooxygenase-2 inhibitors” (Bioorg Med Chem Lett, 2009)

By UniProt entry, the sequences of proteins in these tests, tags left out.
UniProt P23219, whole entry: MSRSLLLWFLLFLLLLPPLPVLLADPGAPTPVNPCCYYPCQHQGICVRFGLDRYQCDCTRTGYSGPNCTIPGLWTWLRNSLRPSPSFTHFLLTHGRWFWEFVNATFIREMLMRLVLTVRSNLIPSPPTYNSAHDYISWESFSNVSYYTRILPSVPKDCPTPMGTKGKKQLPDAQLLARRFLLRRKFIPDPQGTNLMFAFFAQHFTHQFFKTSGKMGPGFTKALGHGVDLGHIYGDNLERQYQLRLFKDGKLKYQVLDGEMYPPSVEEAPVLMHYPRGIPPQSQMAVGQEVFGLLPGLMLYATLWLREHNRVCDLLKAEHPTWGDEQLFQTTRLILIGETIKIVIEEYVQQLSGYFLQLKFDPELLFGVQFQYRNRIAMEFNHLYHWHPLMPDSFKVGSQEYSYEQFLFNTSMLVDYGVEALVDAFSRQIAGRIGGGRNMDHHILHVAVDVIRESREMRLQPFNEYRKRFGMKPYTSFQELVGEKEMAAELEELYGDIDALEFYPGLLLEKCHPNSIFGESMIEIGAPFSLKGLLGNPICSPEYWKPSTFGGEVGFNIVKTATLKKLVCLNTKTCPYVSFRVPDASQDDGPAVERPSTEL

Columns and labels:
[1] = target: Prostaglandin G/H synthase 1 (Homo sapiens, UniProt P23219); assay type: tissue-based, Blood
[2] = Selectivity ratio of IC50 for human COX1 to IC50 for human COX2 expressed in baculovirus-infected SF9 cells

| Structure (SMILES) | IC50 [1] | Ratio IC50 [2] |
| --- | --- | --- |
| CCCCOc1nc(-c2ccc(S(C)(=O)=O)cc2)cc(C(F)(F)F)n1 | 17.4 µM | – |
| CS(=O)(=O)c1ccc(-c2cc(C(F)(F)F)nc(OCC3CCCC3)n2)cc1 | – | 3140 |
